Measurements taken from patent US10947234B2, “PRMT5 inhibitors” (Merck Sharp & Dohme Corp., priority 2017, dated 2021).
Where two headings read alike, the source gives them in different places.

By UniProt entry, the sequences of proteins in these tests, tags left out.
UniProt O14744, whole entry: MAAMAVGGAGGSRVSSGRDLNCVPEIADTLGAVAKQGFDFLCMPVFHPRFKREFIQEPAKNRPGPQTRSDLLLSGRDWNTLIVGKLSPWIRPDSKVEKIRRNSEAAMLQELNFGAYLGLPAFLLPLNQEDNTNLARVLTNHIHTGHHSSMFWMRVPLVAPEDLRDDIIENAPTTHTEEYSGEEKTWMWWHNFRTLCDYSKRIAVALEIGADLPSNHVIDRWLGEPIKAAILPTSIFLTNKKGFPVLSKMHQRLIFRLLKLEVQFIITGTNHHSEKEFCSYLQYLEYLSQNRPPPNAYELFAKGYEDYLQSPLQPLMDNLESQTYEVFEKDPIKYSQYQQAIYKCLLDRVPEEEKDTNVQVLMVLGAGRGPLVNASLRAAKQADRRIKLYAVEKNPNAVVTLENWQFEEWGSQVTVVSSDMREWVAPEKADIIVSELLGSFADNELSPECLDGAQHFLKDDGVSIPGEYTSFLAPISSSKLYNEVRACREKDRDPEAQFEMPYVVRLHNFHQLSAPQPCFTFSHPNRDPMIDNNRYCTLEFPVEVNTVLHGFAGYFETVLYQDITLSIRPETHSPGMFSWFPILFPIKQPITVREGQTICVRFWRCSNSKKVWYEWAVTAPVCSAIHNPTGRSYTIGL

Tests used:
[1] = target: Full-length (FL)-PRMT5-MEP50 enzyme complex (Homo sapiens (Human), UniProt O14744); assay: PRMT5-MEP50 Enzyme Methylation Assay; assay type: biochemical; settings: biotinylated H4R3(Me1) peptide, 15 μM SAM, top compound concentration 100000 nM
Experimental: PRMT5-MEP50 Enzyme Methylation Assay
PRMT5/MEP50 biochemical assay is a direct measurement of the methylation activity of the enzyme complex on a short peptide substrate derived from the N-terminus of H4 histone. Methylation experiment is performed with recombinant protein. The assessment of inhibitory effect (IC50) of small molecules is measured by the effectiveness of the compounds to inhibit this reaction.
In this assay, the potency (IC50) of each compound was determined from a twenty-point (1:2 serial dilution; top compound concentration of 100000 nM) titration curve using the following outlined procedure. To each well of a white ProxiPlus 384 well-plate, 100 nL of compound (1% DMSO in final assay volume of 10 μL) was dispensed, followed by the addition of 8 μL of 1× assay buffer (50 mM Bicine pH 8.0, 1 mM DTT, 0.004% Tween20, 0.01% BSA) containing 0.5 nM of Full-length (FL)-PRMT5-MEP50 enzyme complex (recombinant proteins from baculovirus-transfected Sf21 cells: FL-PRMT5; MW=[…] and FL-MEP50; MW=38614). Plates were sealed and placed in a 37° C. humidified chamber for 30 minutes pre-incubation with compounds. Subsequently, each reaction was initiated by the addition of 2 μL 1× assay buffer containing 75 nM biotinylated H4R3(Me1) peptide, and 15 μM S-(5′-Adenosyl)-L-Methionine Chloride (SAM). The final reaction in each well of 10 μL consists of 0.5 nM PRMT5-MEP50, 75 nM biotinylated-peptide, and 15 μM. Methylation reactions were allowed to proceed for 150 minutes in a sealed plate at 37° C. Reactions were immediately quenched by the addition of 1 μL of 10% formic acid. Plates were then frozen and shipped to SAMDI™ Tech Inc. to determine the percent conversion from […]. IC50 values were determined by 7 parameters biphasic fit model plotting the percent product conversion vs. (Log10) compound concentrations.

PRMT5 = PRMT5 (Homo sapiens (Human), UniProt O14744); assay: PRMT5 Cell Target Engagement (TE) Assay; assay type: cell-based; settings: MCF-7 cells, 3 days treatment, nuclear SDMA by high content imaging; top compound concentration 10000 nM
Excerpt: PRMT5 Cell Target Engagement (TE) Assay
The PRMT5 TE assay is a biomarker assay for identifying compounds that inhibit symmetric dimethylation of arginine (SDMA) of PRMT5 substrates. This assay detects symmetrically dimethylated nuclear proteins using high content imaging technology. Detection of the expression of symmetrically dimethylated nucleo proteins is through a mixture of primary rabbit monoclonal antibodies to SDMA (CST 13222), which in turn recognized by an Alexafluor 488 dye-conjugated anti-rabbit IgG secondary antibody. The IN Cell Analyzer 2200 measures nuclear Alexafluor 488 fluorescent dye intensity that is directly related to the level of expression of symmetrically dimethylated nuclear proteins at the single cell level. Nuclear AF488 dye intensities are compared to the mean value for DMSO treated cells […] to report percent of inhibition for each compound-treated well.
In this assay, the cell potency (EC50) of each compound was determined from a ten point (1:3 serial dilution; top compound concentration of 10000 nM) titration curve using the following outlined procedure. Each well of a BD falcon collagen coated black/clear bottom 384-well plate was seeded with 4000 MCF-7 cells and allowed to attach for 5 hours. Media from cell plate was removed at 0.5 mm above the bottom of the plate and replaced with 30 μL of fresh media containing 1.2× compounds in 0.1% DMSO. […]

[2] = first IC50 of 7 parameters biphasic fit, read-out: Enzyme Methylation Assay IC50_1
[3] = second IC50 of 7 parameters biphasic fit, read-out: Enzyme Methylation Assay IC50_2

SMILES	IC50 [1, 2]	IC50 [1, 3]	EC50 (PRMT5)
CC(=O)N1CCC(Nc2cc3c(cn2)CCN(C[C@@H](O)[C@@H]2Cc4ccccc4CN2)C3=O)CC1 (single isomer, unassigned) [Example 6]	481 nM	≥ 100000 nM	–
CC(=O)N1CCC(Nc2cc3c(cn2)CCN(C[C@@H](O)[C@@H]2Cc4ccccc4CN2)C3=O)CC1 (single isomer, unassigned) [Example 5]	10.8 nM	8160 nM	1590 nM
